From article PMC4963197, “Phosphorylation acts positively and negatively to regulate MRTF-A subcellular localisation and activity” (eLife, 2016)

Tests used:
[1] = biological target: G-actin (UniProt P68135); test: FP; LatB-actin
[2] = biological target: MRTF-A(67–199) S98D (mouse); test: SEC; Superdex 200 in 20 mM Tris (pH 8), 100 mM NaCl, 3 mM MgCl2, 0.2 mM EGTA, 0.3 mM TCEP, 5% (v/v) glycerol, calibrated with globular proteins of known molecular weight; apparent stoichiometry

Question: RPEL1 (62-104) S98A was tested. Which Kd [1] did it give?
Answer: 910 nM

Question: With “G-actin (from UniProt P68135 1-377) (natural protein)” as the substance, how does the reduction of the stoichiometry of G-actin binding against wild-type MRTF-A(67–199) [2] read?
Answer: 1
